Experimental data: ChEMBL document CHEMBL5046267, “Discovery of N-Trisubstituted Pyrimidine Derivatives as Type I RET and RET Gatekeeper Mutant Inhibitors with a Novel Kinase Binding Pose” (J Med Chem, 2022)

Test system: LC-2-ad
Test: cells
Settings: Homo sapiens, 72 h

| SMILES | GI50 [nM] |
| --- | --- |
| CNC(=O)c1cc(Oc2ccc(NC(=O)Nc3ccc(Cl)c(C(F)(F)F)c3)cc2)ccn1 [SORAFENIB] | 3220 |
| Cc1cc(Nc2cc(N3CCOCC3)nc(Nc3ccc(CC(=O)Nc4ccc(C(C)C)cc4)cc3)n2)[nH]n1 | 1440 |
| CN1CCN(c2cc(Nc3cc(C(C)(C)C)n[nH]3)nc(Nc3ccc(CC(=O)NCc4cccc(F)c4)cc3)n2)CC1 | 3240 |
| Cc1cc(Nc2cc(N3CCOCC3)nc(Nc3ccc(CC(=O)Nc4ccc(C(C)(C)C)cc4)cc3)n2)[nH]n1 | 1400 |
| CN1CCN(c2cc(Nc3cc(C4CC4)n[nH]3)nc(Nc3ccc(CC(=O)NCc4cccc(F)c4)cc3)n2)CC1 | 113 |
| CCN1CCN(c2cc(Nc3cc(C)n[nH]3)nc(Nc3ccc(CC(=O)NCc4ccc(OC)cc4)cc3)n2)CC1 | 176 |
| CCN1CCN(c2cc(Nc3cc(C)n[nH]3)nc(Nc3ccc(CC(=O)Nc4ccc(C(C)C)cc4)cc3)n2)CC1 | 1170 |
